Test results as given in paper PMC8671752, “Effects of ex vivo Extracorporeal Membrane Oxygenation Circuits on Sequestration of Antimicrobial Agents” (Frontiers in Medicine, 2021).

Key:
[1] = Drug recovery in the Sorin ECMO circuit; details: phosphorylcholine-coated circuit, whole human blood, 37°C, HPLC-MS/MS, % of 2 min concentration, single measurement
[2] = Control group: spontaneous drug degradation in whole blood at 37°C; details: control of Sorin experiment; whole human blood, water bath 37°C 12 h, no circuit; HPLC-MS/MS; % of 2 min concentration; single measurement

## CC[C@H](C)CCCCC(=O)N[C@@H](CCN)C(=O)N[C@H](C(=O)N[C@@H](CCN)C(=O)N[C@H]1CCNC(=O)[C@H]([C@@H](C)O)NC(=O)[C@H](CCN)NC(=O)[C@H](CCN)NC(=O)[C@H](CC(C)C)NC(=O)[C@@H](Cc2ccccc2)NC(=O)[C@H](CCN)NC1=O)[C@@H](C)O [Polymyxin B, polymyxin B]
[1]
  Drug recovery, Sorin circuit, 1 h: 104%
[2]
  Drug recovery, Control-12 h (Sorin experiment): 105%
